# From ChEMBL document CHEMBL1135488, “Prediction of volume of distribution values in humans for neutral and basic drugs using physicochemical measurements and plasma protein binding data” (J Med Chem, 2002)
# Assay: Ionisation constant (pKa)
# Format: physicochemical
row,SMILES,pKa
1,COc1cc(Cc2cnc(N)nc2N)cc(OC)c1OC [TRIMETHOPRIM],7.07
2,CN(C)CCC(c1ccc(Cl)cc1)c1ccccn1 (configuration not stated) [CHLORPHENIRAMINE],9.26
